Assay results published in PMC6979384, “Characterization of the plant homeodomain (PHD) reader family for their histone tail interactions” (Epigenetics & Chromatin, 2020).

Columns and labels:
Assay in all cases: Histone peptide microarray
Type in all cases: binding, human
KDM5B (1) = conditions: sheet "Array Heatmap"; GST-tagged KDM5B (1); arrays performed twice, total replicate number n = 4
Text: (§1) To more comprehensively define the histone interactions of the 31 PHD readers identified from the domain microarray analyses, we probed each on an alternate microarray platform containing a library of 293 synthetic histone peptides with single or combinatorial PTMs (Additional file 2: Figure S4 and Additional file 3: Table S2).
(§2) The 31 GST-tagged PHD readers identified in the PHD finger domain array were expressed and purified as previously. Histone peptide arrays and peptide pulldown assays were conducted as recently described (specifically, the optimized protocol from Petell et al. for the former).
Supplementary file 13072_2020_328_MOESM3_ESM.xlsx: Additional file 3: Table S2. […] Excel Tab Peptide List is a compiled list of the entire 293 histone peptide library with amino acid sequence ranges. […] Each number corresponds to the peptide number designated in Peptide List. Excel Tab Average Signals is a compiled set of binding data: chromatin reader at 0.5 μM vs. entire 293 peptide library. Data is presented as the average and standard deviation of 4 replicates. The average signals are colored to indicate signal intensity with green being strong and white being weak/low. […] Key: red= stronger relative binding; blue = weaker relative binding. Excel Tab Array info summary is a table summarizing the domains, sequence coverage, array signal range, and noise for each of the GST-tagged readers assayed on the peptide microarrays.

KDM4C (TTP) = conditions: sheet "Array Heatmap"; GST-tagged KDM4C (TTP); arrays performed twice, total replicate number n = 4
Text: as §1, with “S2). […] In general, the 31 PHD fingers were confirmed to associate with the H3 tail with the same H3K4 methyl preferences as in the domain microarrays (Fig. 2; Additional file 3: Table S2). […] In addition, we confirmed the newly identified interactions observed with the domain microarrays for PHRF1 and TRIM66 (Fig. 2).” for “S2).”
as §2
(§3) Supplementary file 13072_2020_328_MOESM3_ESM.xlsx: Additional file 3: Table S2. Histone Peptide Microarray Results. Excel Tab Peptide List is a compiled list of the entire 293 histone peptide library with amino acid sequence ranges. Excel Tab Peptide Array Grid Map is a table representing the pattern in which peptides have been printed for the peptide microarray. Each number corresponds to the peptide number designated in Peptide List. Excel Tab Average Signals is a compiled set of binding data: chromatin reader at 0.5 μM vs. entire 293 peptide library. Data is presented as the average and standard deviation of 4 replicates. The average signals are colored to indicate signal intensity with green being strong and white being weak/low. […] Key: red= stronger relative binding; blue = weaker relative binding. Excel Tab Array info summary is a table summarizing the domains, sequence coverage, array signal range, and noise for each of the GST-tagged readers assayed on the peptide microarrays.

MORC3 (CW) = conditions: sheet "Array Heatmap"; GST-tagged MORC3 (CW); arrays performed twice, total replicate number n = 4
Text: as §1, with “S2). […] In general, the 31 PHD fingers were confirmed to associate with the H3 tail with the same H3K4 methyl preferences as in the domain microarrays (Fig. 2; Additional file 3: Table S2). […] In addition, we confirmed the newly identified interactions observed with the domain microarrays for PHRF1 and TRIM66 (Fig. 2).” for “S2).”
as §2, §3

ING1 = conditions: sheet "Array Heatmap"; GST-tagged ING1; arrays performed twice, total replicate number n = 4
Text: as §1, with “S2). […] In general, the 31 PHD fingers were confirmed to associate with the H3 tail with the same H3K4 methyl preferences as in the domain microarrays (Fig. 2; Additional file 3: Table S2). […] In addition, we confirmed the newly identified interactions observed with the domain microarrays for PHRF1 and TRIM66 (Fig. 2).” for “S2).”
as §2, §3

PHF23 = conditions: sheet "Array Heatmap"; GST-tagged PHF23; arrays performed twice, total replicate number n = 4
Text: as §1, with “S2). […] In general, the 31 PHD fingers were confirmed to associate with the H3 tail with the same H3K4 methyl preferences as in the domain microarrays (Fig. 2; Additional file 3: Table S2). […] In addition, we confirmed the newly identified interactions observed with the domain microarrays for PHRF1 and TRIM66 (Fig. 2).” for “S2).”
as §2, §3

BAZ2B = conditions: sheet "Array Heatmap"; GST-tagged BAZ2B; arrays performed twice, total replicate number n = 4
Text: as §1, with “S2). […] In general, the 31 PHD fingers were confirmed to associate with the H3 tail with the same H3K4 methyl preferences as in the domain microarrays (Fig. 2; Additional file 3: Table S2). […] In addition, we confirmed the newly identified interactions observed with the domain microarrays for PHRF1 and TRIM66 (Fig. 2).” for “S2).”
as §2, §3

DIDO1 = conditions: sheet "Array Heatmap"; GST-tagged DIDO1; arrays performed twice, total replicate number n = 4
Text: as §1, with “S2). […] In general, the 31 PHD fingers were confirmed to associate with the H3 tail with the same H3K4 methyl preferences as in the domain microarrays (Fig. 2; Additional file 3: Table S2). […] In addition, we confirmed the newly identified interactions observed with the domain microarrays for PHRF1 and TRIM66 (Fig. 2).” for “S2).”
as §2, §3

PHF8 = conditions: sheet "Array Heatmap"; GST-tagged PHF8; arrays performed twice, total replicate number n = 4
Text: as §1, with “S2). […] In general, the 31 PHD fingers were confirmed to associate with the H3 tail with the same H3K4 methyl preferences as in the domain microarrays (Fig. 2; Additional file 3: Table S2). […] In addition, we confirmed the newly identified interactions observed with the domain microarrays for PHRF1 and TRIM66 (Fig. 2).” for “S2).”
as §2, §3

SP140L = conditions: sheet "Array Heatmap"; GST-tagged SP140L; arrays performed twice, total replicate number n = 4
Text: as §1, with “S2). […] In general, the 31 PHD fingers were confirmed to associate with the H3 tail with the same H3K4 methyl preferences as in the domain microarrays (Fig. 2; Additional file 3: Table S2). […] In addition, we confirmed the newly identified interactions observed with the domain microarrays for PHRF1 and TRIM66 (Fig. 2).” for “S2).”
as §2, §3

ING2 = conditions: sheet "Array Heatmap"; GST-tagged ING2; arrays performed twice, total replicate number n = 4
Text: as §1, with “S2). […] In general, the 31 PHD fingers were confirmed to associate with the H3 tail with the same H3K4 methyl preferences as in the domain microarrays (Fig. 2; Additional file 3: Table S2). […] In addition, we confirmed the newly identified interactions observed with the domain microarrays for PHRF1 and TRIM66 (Fig. 2).” for “S2).”
as §2, §3

PHF21A = conditions: sheet "Array Heatmap"; GST-tagged PHF21A; arrays performed twice, total replicate number n = 4
Text: as §1, with “S2). […] In general, the 31 PHD fingers were confirmed to associate with the H3 tail with the same H3K4 methyl preferences as in the domain microarrays (Fig. 2; Additional file 3: Table S2). […] In addition, we confirmed the newly identified interactions observed with the domain microarrays for PHRF1 and TRIM66 (Fig. 2).” for “S2).”
as §2, §3

KDM5B (3) = conditions: sheet "Array Heatmap"; GST-tagged KDM5B (3); arrays performed twice, total replicate number n = 4
Text: as §1, with “S2). […] In general, the 31 PHD fingers were confirmed to associate with the H3 tail with the same H3K4 methyl preferences as in the domain microarrays (Fig. 2; Additional file 3: Table S2). […] In addition, we confirmed the newly identified interactions observed with the domain microarrays for PHRF1 and TRIM66 (Fig. 2).” for “S2).”
as §2, §3

ING4 = conditions: sheet "Array Heatmap"; GST-tagged ING4; arrays performed twice, total replicate number n = 4
Text: as §1, with “S2). […] In general, the 31 PHD fingers were confirmed to associate with the H3 tail with the same H3K4 methyl preferences as in the domain microarrays (Fig. 2; Additional file 3: Table S2). […] In addition, we confirmed the newly identified interactions observed with the domain microarrays for PHRF1 and TRIM66 (Fig. 2).” for “S2).”
as §2, §3

KDM7A = conditions: sheet "Array Heatmap"; GST-tagged KDM7A; arrays performed twice, total replicate number n = 4
Text: as §1, with “S2). […] In general, the 31 PHD fingers were confirmed to associate with the H3 tail with the same H3K4 methyl preferences as in the domain microarrays (Fig. 2; Additional file 3: Table S2). […] In addition, we confirmed the newly identified interactions observed with the domain microarrays for PHRF1 and TRIM66 (Fig. 2).” for “S2).”
as §2, §3

PHF13 = conditions: sheet "Array Heatmap"; GST-tagged PHF13; arrays performed twice, total replicate number n = 4
Text: as §1, with “S2). […] In general, the 31 PHD fingers were confirmed to associate with the H3 tail with the same H3K4 methyl preferences as in the domain microarrays (Fig. 2; Additional file 3: Table S2). […] In addition, we confirmed the newly identified interactions observed with the domain microarrays for PHRF1 and TRIM66 (Fig. 2).” for “S2).”
as §2, §3

Substance: H3K4me1 + K9me2: H3 1-15
- Array Heatmap signal, KDM5B (1) (KDM5B (1)): 0.6393
- Array Heatmap signal, KDM4C (TTP) (KDM4C (TTP)): 0.4132
- Array Heatmap signal, MORC3 (CW) (MORC3 (CW)): 0.6065
- Array Heatmap signal, ING1 (ING1): 0.5404
- Array Heatmap signal, PHF23 (PHF23): 0.5514
- Array Heatmap signal, BAZ2B (BAZ2B): 0.3774
- Array Heatmap signal, DIDO1 (DIDO1): 0.7103
- Array Heatmap signal, PHF8 (PHF8): 0.3768
- Array Heatmap signal, SP140L (SP140L): 0.3258
- Array Heatmap signal, ING2 (ING2): 0.6787
- Array Heatmap signal, PHF21A (PHF21A): 0.4036
- Array Heatmap signal, KDM5B (3) (KDM5B (3)): 0.4913
- Array Heatmap signal, ING4 (ING4): 0.3915
- Array Heatmap signal, KDM7A (KDM7A): 0.3418
- Array Heatmap signal, PHF13 (PHF13): 0.5162
